The chains behind the UniProt entries cited, without tags or fusion partners.
UniProt Q02750, whole entry: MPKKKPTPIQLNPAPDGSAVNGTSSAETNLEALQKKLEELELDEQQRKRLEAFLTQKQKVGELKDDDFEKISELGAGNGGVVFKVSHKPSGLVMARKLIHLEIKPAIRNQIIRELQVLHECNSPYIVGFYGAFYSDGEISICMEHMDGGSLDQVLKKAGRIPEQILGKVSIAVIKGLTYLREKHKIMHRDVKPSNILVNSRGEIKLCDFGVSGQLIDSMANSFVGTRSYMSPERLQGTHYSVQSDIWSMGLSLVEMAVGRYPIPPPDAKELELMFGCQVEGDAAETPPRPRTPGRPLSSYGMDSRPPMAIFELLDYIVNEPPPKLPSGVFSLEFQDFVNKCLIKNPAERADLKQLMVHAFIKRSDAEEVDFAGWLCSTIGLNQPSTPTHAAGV

In ChEMBL document CHEMBL1681690, “Discovery of TAK-733, a potent and selective MEK allosteric site inhibitor for the treatment of cancer” (Bioorg Med Chem Lett, 2011):

Biological target: Dual specificity mitogen-activated protein kinase kinase 1 (Homo sapiens, UniProt Q02750)

SMILES: Cn1cnc2c(c(Nc3ccc(I)cc3F)cc(=O)n2C)c1=O
- IC50: 0.026 µM
